Data from patent US20130084328A1, “METHYLATED CODING AND NON-CODING RNA GENES AS DIAGNOSTIC AND THERAPEUTIC TOOLS FOR HUMAN MELANOMA” (Sanford-Burnham Medical Research Institute, priority 2011, published 2013).

Test system: WM1552C melanoma cells
Test: RNA deep sequencing (SOLiD) of WM1552C/34b versus WM1552C/VO cells
Assay type: cell-based, human
Settings: Bioscope; WM1552C/34b vs WM1552C/VO
Excerpt: Oligonucleotides complimentary to the hsa-miR-34b genomic sequences were constructed (miR-34b pre For-GTGCTCGGTT TGTAGGCAGT G [SEQ ID NO:25] and miR-34b pre Rev-GTGCCTTGTT TTGATGGCAG TG [SEQ ID NO:26]), containing HindIII and BamHI sites on their respective 5′ and 3′ ends, then amplified from melanocyte genomic DNA (Amplitaq Gold, Applied Biosystems/Life Technologies). The product was then TOPO cloned into pCR4-TOPO (Invitrogen/Life Technologies). The vector construct was sequenced and the pre-hsa-miR-34b fragment was sub-cloned into pcDNA4/H1-3TetR using the HindIII and BamHI sites to create pcDNA4/H1-3TetR/miR-34b. […] The following morning, cells were selected with 600 μg/mL Zeocin for the following 15 days.
Total RNA was isolated from samples using Trizol (Invitrogen/Life Technologies) and fragmented through RNase III digestion. SOLiD sequence protocols (Applied Biosytems/Life Technologies) require reverse transcription of these RNAs, priming with a ligated primer, and the resulting cDNA amplified and size-selected in a 6% urea gel with the help of SYBR Gold dye for sequencing. The sequence libraries (150-200 bp size fragments) were further amplified using a bead-based emulsion PCR optimized to physically isolate a single bead/cDNA molecule. This enables massively parallel amplification of monoclonal DNA species. For RNA-seq experiments, we deposited approximately 90 million beads per sample onto a glass slide and analyzed them using a ligation-based sequencing technology. Data were mapped to the human genome using both BioScope and BFAST software packages and analyzed at the Burnham Institute Bioinformatics core facility.
Mapping of the SOLiD sequence data was performed using the standard pipeline of Blat-like Fast Accurate Search Tool (BFAST) (Horner et al., 2009) against the human genome (hg19) (Rhead et al., 2010). […] It then hashes the reads to a number of genomic locations based on the indices and performs detailed alignments between the reads and the genomic sequence at the hashed locations. The final output of BFAST contains the mapped genomic locations of each read and the qualities (represented via alignment scores) of the mappings.
The expression level of a gene can be calculated based on the mapping results. The BFAST algorithm successfully mapped ˜63% of the reads to the reference genome; among the mapped reads, ˜89% were uniquely mapped. Only uniquely mapped reads were considered to eliminate possible noise. For each gene (from the RefSeq annotation for hg19), a score was calculated as reads per kilobase of sequence per million reads (RPKM) (Mortazavi et al., 2008).
The predefined mapping protocol for SOLiD sequencing on BioScope 1.0 was also used. BioScope was able to map ˜63% of the reads to the reference genome, ˜83% uniquely. The output was then fed into the Partek Genomics Suite for analysis. Again, an RPKM score was computed for each gene.
The results of the two analysis pipelines were compared to arrive at a consensus. […] For this calculation, a pseudo-count of 1.0 was used to overcome divide by zero errors and to normalize the data at low RPKM values. […] The order of the genes was then directed by the corroborated fold change. For the open reading frames, a cutoff was established with a minimum fold change of +/−1.5 (1.5 for miRNAs, −1.2 for target genes). The transcript delta was also obtained; this was used to select genes for further testing, this cutoff was set at 10.0 for open reading frames (1.3 for miRNAs, −2.0 for target genes). Of particular interest are the target genes of miR-34b.

Q: Which results are given for “miR-34b: nucleic acid exemplified by SEQ ID NO:2 (CAAUCACUAACUCCACUGCCAU); stably expressed in WM1552C from pcDNA4/H1-3TetR/miR-34b (WM1552C/34b) (CAAUCACUAACUCCACUGCCAU)”?
A: ACAN Fold Change: 2.19; ACAN Transcript Difference: 16.51; ALCAM Fold Change: −2.33; ALCAM Transcript Difference: 12.29; AP2M1 Fold Change: −1.82; AP2M1 Transcript Difference: 15.15; CADM4 Fold Change: 1.79; CADM4 Transcript Difference: 12.86; CAVI Fold Change: −1.55; CAVI Transcript Difference: 18.48; COL6A1 Fold Change: −1.60; COL6A1 Transcript Difference: 11.91; COL9A3 Fold Change: 1.84; COL9A3 Transcript Difference: 21.05; CRIMI Fold Change: −1.66; CRIMI Transcript Difference: 13.32; CXCL1 Fold Change: −1.57; CXCL1 Transcript Difference: 164.16; CYR61 Fold Change: −1.63; CYR61 Transcript Difference: 31.05; DKK1 Fold Change: −9.27; DKK1 Transcript Difference: 18.26; FASN Fold Change: 1.73; FASN Transcript Difference: 18.85; FBNI Fold Change: −2.55; FBNI Transcript Difference: 25.18; FCRLA Fold Change: 2.85; FCRLA Transcript Difference: 17.76; FSTL1 Fold Change: −1.74; FSTL1 Transcript Difference: 25.38; HLA-DRA Fold Change: 1.73; HLA-DRA Transcript Difference: 23.99; HLA-DRBI Fold Change: 2.18; HLA-DRBI Transcript Difference: 22.90; ID3 Fold Change: −2.71; ID3 Transcript Difference: 19.97; IGFBP2 Fold Change: 1.80; IGFBP2 Transcript Difference: 60.38; IGFBP7 Fold Change: −2.09; IGFBP7 Transcript Difference: 50.32; IL1B Fold Change: −7.58; IL1B Transcript Difference: 221.43; IL6 Fold Change: −1.72; IL6 Transcript Difference: 15.64; INHBA Fold Change: −9.48; INHBA Transcript Difference: 12.28; ITGA3 Fold Change: −3.63; ITGA3 Transcript Difference: 18.17; ITGB5 Fold Change: −1.71; ITGB5 Transcript Difference: 13.47; KLF9 Fold Change: 1.61; KLF9 Transcript Difference: 14.83; LOXL2 Fold Change: −1.75; LOXL2 Transcript Difference: 60.13; LYPD1 Fold Change: −3.86; LYPD1 Transcript Difference: 14.43; MARCKSLI Fold Change: 1.68; MARCKSLI Transcript Difference: 12.59; MIA Fold Change: 1.90; MIA Transcript Difference: 37.10; MIR20B Fold Change: 2.78; MIR20B Transcript Difference: 6.06; MIR34B Fold Change: 3.26; MIR34B Transcript Difference: 11.50; MIR134 Fold Change: 3.02; MIR134 Transcript Difference: 6.50; MIR140 Fold Change: 3.65; MIR140 Transcript Difference: 21.18; MIR149 Fold Change: 2.59; MIR149 Transcript Difference: 4.50; MIR154 Fold Change: 3.14; MIR154 Transcript Difference: 6.63; MIR181D Fold Change: 1.51; MIR181D Transcript Difference: 1.32; MIR199B Fold Change: 2.68; MIR199B Transcript Difference: 5.06; MIR301A Fold Change: 2.17; MIR301A Transcript Difference: 3.86; MIR323 Fold Change: 1.57; MIR323 Transcript Difference: 1.76; MIR362 Fold Change: 1.70; MIR362 Transcript Difference: 2.09; MIR376A2 Fold Change: 1.82; MIR376A2 Transcript Difference: 2.78; MIR380 Fold Change: 1.54; MIR380 Transcript Difference: 1.65; MIR382 Fold Change: 1.72; MIR382 Transcript Difference: 2.70; MIR409 Fold Change: 3.50; MIR409 Transcript Difference: 12.15; MIR410 Fold Change: 2.30; MIR410 Transcript Difference: 3.86; MIR425 Fold Change: 1.62; MIR425 Transcript Difference: 1.82; MIR431 Fold Change: 1.90; MIR431 Transcript Difference: 3.63; MIR432 Fold Change: 2.38; MIR432 Transcript Difference: 4.17; MIR453 Fold Change: 2.44; MIR453 Transcript Difference: 4.29; MIR487A Fold Change: 1.83; MIR487A Transcript Difference: 2.96; MIR494 Fold Change: 2.72; MIR494 Transcript Difference: 5.38; MIR495 Fold Change: 2.35; MIR495 Transcript Difference: 4.14; MIR496 Fold Change: 1.90; MIR496 Transcript Difference: 3.37; MIR501 Fold Change: 1.52; MIR501 Transcript Difference: 1.44; MIR518A2 Fold Change: 1.74; MIR518A2 Transcript Difference: 2.74; MIR656 Fold Change: 1.64; MIR656 Transcript Difference: 2.08; MIR660 Fold Change: 2.65; MIR660 Transcript Difference: 4.70; MIR663B Fold Change: 4.48; MIR663B Transcript Difference: 35.55; MIR663 Fold Change: 12.50; MIR663 Transcript Difference: 70.74; MIR1197 Fold Change: 1.83; MIR1197 Transcript Difference: 2.86; MIR1205 Fold Change: 1.51; MIR1205 Transcript Difference: 1.32; MIR1312 Fold Change: 3.16; MIR1312 Transcript Difference: 9.85; MMP14 Fold Change: −1.54; MMP14 Transcript Difference: 14.10; MMPS Fold Change: 2.80; MMPS Transcript Difference: 12.14; NT5E Fold Change: 1.55; NT5E Transcript Difference: 18.87; PDE1C Fold Change: −1.66; PDE1C Transcript Difference: 16.34; PTTGHP Fold Change: −1.73; PTTGHP Transcript Difference: 19.63; RCANI Fold Change: 2.38; RCANI Transcript Difference: 44.75; RPL24 Fold Change: 1.52; RPL24 Transcript Difference: 16.61; RPL37A Fold Change: 1.70; RPL37A Transcript Difference: 41.46; S100A16 Fold Change: −2.86; S100A16 Transcript Difference: 27.00; S100B Fold Change: 2.45; S100B Transcript Difference: 70.71; SEMA3C Fold Change: −1.61; SEMA3C Transcript Difference: 14.88; SERPINA3 Fold Change: 2.37; SERPINA3 Transcript Difference: 13.31; SERPINB2 Fold Change: −3.68; SERPINB2 Transcript Difference: 14.12; SRGN Fold Change: −5.87; SRGN Transcript Difference: 17.37; STC1 Fold Change: −22.72; STC1 Transcript Difference: 11.88; STC2 Fold Change: −4.44; STC2 Transcript Difference: 12.45; TGFBI Fold Change: −1.58; TGFBI Transcript Difference: 23.76; THBS2 Fold Change: 1.55; THBS2 Transcript Difference: 123.34; TNFRSF21 Fold Change: −4.00; TNFRSF21 Transcript Difference: 25.16; TNS3 Fold Change: −1.56; TNS3 Transcript Difference: 37.76; TXNIP Fold Change: −2.33; TXNIP Transcript Difference: 30.21; UGCG Fold Change: −1.76; UGCG Transcript Difference: 19.21; WNT5A Fold Change: −2.16; WNT5A Transcript Difference: 18.11
